Data: patent US11185100B2 (priority 2014, dated 2021)

Chains of the proteins cited; added tags and fusions are not shown. Residues count along the entry.
UniProt E3UMS2, 1-296: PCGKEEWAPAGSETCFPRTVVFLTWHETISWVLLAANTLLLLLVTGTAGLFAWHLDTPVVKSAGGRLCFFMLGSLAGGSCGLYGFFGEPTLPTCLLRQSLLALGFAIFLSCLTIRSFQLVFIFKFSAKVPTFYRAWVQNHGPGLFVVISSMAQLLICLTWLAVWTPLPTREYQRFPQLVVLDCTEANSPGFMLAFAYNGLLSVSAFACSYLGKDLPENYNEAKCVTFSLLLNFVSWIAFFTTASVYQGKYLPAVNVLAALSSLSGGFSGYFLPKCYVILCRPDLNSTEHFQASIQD

Assays:
cat T1R1/T1R3 receptor [1] = target: T1, cat T1R1/T1R3 receptor (Felis catus, UniProt E3UMS2); experiment: Activation of cat T1R1/T1R3 receptor by nucleotide derivatives alone, with alanine and/or IMP; HEK293 cells, intracellular calcium fluorescence (Example 1); format: cell-based; details: read-out: EC50- with IMP; with 0.2 mM IMP
cat T1R1/T1R3 receptor [2] = target: T1, cat T1R1/T1R3 receptor

| Compound | EC50 (cat T1R1/T1R3 receptor [1]) | Threshold (cat T1R1/T1R3 receptor [2]) | Activity (cat T1R1/T1R3 receptor [2]) |
| --- | --- | --- | --- |
| O=C(Nc1ncnc2c1ncn2[C@@H]1O[C@H](COP(=O)(O)O)[C@@H](O)[C@H]1O)c1ccccc1 | 720 µM | 0.3 mM | – |
| O=c1ccn([C@H]2C[C@H](O)[C@@H](COP(O)(O)=S)O2)c(=O)[nH]1 | – | – | active |
| Nc1nc2c(ncn2[C@H]2C[C@H](OP(=O)(O)O)[C@@H](COP(=O)(O)O)O2)c(=O)[nH]1 | – | – | active |
